Patent publication US11046694B2, “Compounds and methods for treating bacterial infections” (Entasis Therapeutics, Inc., priority 2018, dated 2021)
Counter-ions that a name gives are not always drawn.

Test system: P. aeruginosa clinical isolate (ARC6347, AmpC+, PoxB+)
Experiment: In vivo efficacy in a neutropenic murine thigh model
Details: neutropenic CD-1 mice, subcutaneous, 8 doses 3 hours apart

Row | SMILES | Log(CFU/g) reduction in thigh | In vivo efficacy (stasis) in thigh model
1 | CN/C(=N\O)[C@@H]1c2c(cnn2C)[C@@H]2CN1C(=O)N2OS(=O)(=O)O (stereo in doubt) [Example 40, Sodium (4R*,8S*)-8-((Z)—N′-hydroxy-N-methylcarbamimidoyl)-1-methyl-6-oxo-4,8-dihydro-1H-4,7-methanopyrazolo[3,4-e][1,3]diazepin-5(6H)-yl hydrogen sulfate] | more than 2 Log(CFU/g) | –
2 | Cn1ncc2c1[C@@H](CN)N1C[C@@H]2N(OS(=O)(=O)O)C1=O [Comparator 1, reference compound] | – | not active
